## Measured affinities in a library of Ab-14 heavy chain variants

Source: Li et al. 2023 (doi:10.1038/s41467-023-39022-2), MIT Lincoln Laboratory and A-Alpha Bio; data file from the FLAb repository.

Target: peptide PDVDLGDISGINAS, taken from heptad repeat 2 (HR2) of SARS-CoV-2 spike.

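The starting antibody came from a phage panning campaign against this peptide. These sequences belong to a second round, designed from the earlier measurements on random variants of the parent. Group labels follow the data file (Ctrl: baseline library sampled from a position-specific scoring matrix, with some repeated check sequences; Rand: our label for a block that the file lists under HC and that is probably the random mutants of the ten best first-round binders; GP: Gaussian process model; GPLM: also part of the Gaussian process libraries; HC: hill climbing; Gen: genetic algorithm; Gibbs: Gibbs sampling; a sequence that several methods proposed may carry one label only). The scFvs were displayed on barcoded MATa yeast, the peptide on MATalpha yeast. Pairs that bind mate more often; barcode pairs of the diploids are counted by sequencing. Read counts were normalised to the haploid input and turned into Kd by a linear fit to BCL2-family pairs of known affinity, for each replicate. The assay was run in six technical replicates.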

Each scFv is VH, a (GGGGS)3 linker, VL, as in the parent Ab-14, and differs from it in the CDRs of the heavy chain only.
VH: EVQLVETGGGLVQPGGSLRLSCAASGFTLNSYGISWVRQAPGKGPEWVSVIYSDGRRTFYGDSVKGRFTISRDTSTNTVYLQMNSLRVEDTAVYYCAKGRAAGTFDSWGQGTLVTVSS
VL: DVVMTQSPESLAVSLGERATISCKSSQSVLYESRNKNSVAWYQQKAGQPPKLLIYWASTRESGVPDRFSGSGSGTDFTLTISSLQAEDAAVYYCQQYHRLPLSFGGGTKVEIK

Each variant is given by its three heavy chain CDRs, as the data file delimits them; those of the parent are GFTLNSYGIS, VIYSDGRRTFYGDSVK, GRAAGTFDS.
Variants here have at most six changes.
Numbers give log10(Kd / nM), so 0 is 1 nM and 3 is 1 µM. Smaller is tighter.
Averages over replicates are reported, and they cover detected replicates only.
An entry "nd" has no value in the source: the pair was not observed among the diploids in any replicate. This suggests poor binding but is not conclusive.
Three control strains display no target. For all heavy chain designs, 1% of the pairings with them gave a signal, with a median of 2.08 and one signal in twenty below 0.84, so weak values seen in few replicates may be background.
A sequence that the file lists under several names has all its replicates pooled.
The range of this assay differs from that of the first round, and the authors advise against merging the two.
The authors' rule: three or more of the six replicates give a measured affinity, fewer mean a poor binder.
The parent sequence was in this pool as ten entries: three were never detected, three once, and four in most replicates, with averages from 0.34 to 2.37.

With GFTLNSYGIS | VIYSDGKRTFYGDDVK | GRNAGTFDT [GP_Gibbs] the result was 0.93 (6 of 6 replicates). With GFSLNSYGIS | VIYSDGRRTFYADSVK | GREAGTFDT [GPLM_Gen] the result was -0.02 (6 of 6 replicates). With GFELNEYGIS | VIYSDGRRTFYGDSVK | GQAAGTFDT [GPLM_Gen] the result was 0.26 (6 of 6 replicates). For GNTLNSYGIS | VIYSDGRRTFYGQSVW | TRAAGTFDS [Ctrl], the assay gave 2.11 (1 of 6 replicates). Variant GFTLNDYGIT | VIYSDGRRTFYGDSVK | GRAAGTVDS [Ctrl] showed nd (0 of 6 replicates). Variant GFRLNEYGIS | VIYSDGRRTFYGDSVK | GRNAGTFDS [GP_Gen] showed 0.96 (6 of 6 replicates). For GFELNSYGIS | VIYSDGRRTFYADSVK | GRAAGTFDS [Ctrl+GPLM_Gen], the assay gave 0.40 (12 of 12 replicates).

Variant GFSLNEYGIS | VIYSDGRRTFYGDSVK | GKIAGTFDS [GPLM_Gen] gave 0.08 (6 of 6 replicates). Variant GFTLNSYGIS | VIYSDGRRTFYNDSVK | GYVAGTFDS [Ctrl] gave 0.92 (5 of 6 replicates). With GFTLNEYGIS | VIYSDGRRTFYGDSVK | GKAAGTFDK [GPLM_Gen] the result was 0.14 (6 of 6 replicates). Variant GFTLMDYGIS | VIYSDGRRTFYGDSVK | GRAAGTFDS [Ctrl] showed 1.44 (6 of 6 replicates). Variant GFSLNSYGIS | VIYSDGRRTFYCDRVK | GEAAGTFDS [GPLM_Gibbs] showed 1.60 (2 of 6 replicates). Variant GFSLVMYGIS | VIYSDGRRTFYGDSVK | GRAAGTFDL [Ctrl] gave nd (0 of 6 replicates). Variant GFTLNSYGIS | VIYSDGRRTFYDDSYK | GQIAGTFDS [Rand] gave 1.91 (2 of 6 replicates).

Variant GFTLNSYGIS | VIYSDGRRTFYGDSVK | GKAAGTFDL [Ctrl] showed 2.35 (5 of 6 replicates). Variant GFTLNSYGIS | VIYSDGMRTFYSDSVK | GEAAGTFDS [GPLM_Gen] showed 1.24 (6 of 6 replicates). Variant GFTLNSYGIS | VIYSDGKRTFYIDSVK | GRQAGTFDS [GPLM_HC] gave nd (0 of 6 replicates). Variant GFSLNEYGIS | VIYSDGRRTFYGDSVK | GRAAGTFDN [GPLM_Gen] showed 0.08 (6 of 6 replicates). With GFALNSYGIS | VIYSDGRRTAYGDSVK | GRAAGTFDS [Ctrl] the result was nd (0 of 6 replicates). With GFNLNSYGIS | VIYSDGRRTFYGDSVK | GRTAGTFDS [GPLM_Gen] the result was 0.47 (6 of 6 replicates). Variant GFDLNSYGIS | VIYSDGRRTFYGDSVK | GQAAGTFDK [GP_Gen] showed 0.27 (5 of 6 replicates).

Variant GFFLNEYGIS | VIYSDGRRTFYGDSVK | GRAAGTFDQ [GP_HC] gave nd (0 of 6 replicates). Variant GFTLESYGIS | VIYSDGRRTFYTDSVK | GQAAGTFDS [GP_HC] showed 0.74 (5 of 6 replicates). For GFELNDYGIS | VIYSDGRRTFYHDWVK | GRTAGTFDS [GP_Gibbs], the assay gave 2.41 (3 of 6 replicates). Variant KFQLNSYGIS | VIYSDGRRTFYQDSVK | GQTAGTFDS [GP_Gibbs] showed 0.92 (1 of 6 replicates). Variant GFELNDYGIS | VIYSDGRRTFYDDSVK | GRAAGTFDS [GP_HC] showed 1.59 (5 of 6 replicates). With GFTLNSFGIS | VIYSDGRRTFYGDSVK | GRAAGTFDS [Ctrl] the result was nd (0 of 6 replicates). Variant GFSLNEYGIS | VIYSDGRRTFYGDQVK | GQAAGTFDN [GP_Gibbs] showed 0.45 (6 of 6 replicates).

Variant GFNLNSYGIS | VIYSDGRRTFYDDSVK | GQEAGTFDS [GPLM_HC] showed -0.48 (6 of 6 replicates). Variant GFTLNSYGIS | VIYRDGMRTFYGDEVK | GRAAGTFKS [Ctrl] showed nd (0 of 6 replicates). Variant GFTLNSYGIS | VIYSDGRRTFYGDSVK | RRAAGTFDV [Ctrl] showed nd (0 of 6 replicates). With HFTLSSYGIS | VIYSDGRRTAYLDSVK | GRVAGTFDS [Ctrl] the result was 1.93 (4 of 6 replicates). With GFTLNEYGIS | VIASDGRRTFYGDSVK | GRAAVTFDQ [Rand] the result was nd (0 of 6 replicates). For GFELNDYGIS | VIYSDGRRTFYADSVK | GRAAGTFDS [GPLM_Gen], the assay gave 0.52 (6 of 6 replicates). Variant GFDLNSYGIS | VIYSDGRRTFYQDSVK | GRWAGTFDA [GP_Gibbs] gave -0.22 (4 of 6 replicates).

Variant GFTLNSYGIS | VIYSDGRRTQYGDSVK | GKAAGTFPS [Ctrl] gave nd (0 of 6 replicates). Variant GFELNRYGIS | VIYSDGRRTFYGDSVK | GQTAGTFDS [GP_Gibbs] showed 0.57 (6 of 6 replicates). Variant GFTPNSYGIS | VIYSDGRRTSYGDSVK | GRAAGTFDS [Ctrl] showed nd (0 of 6 replicates). Variant GFTLNSYGIS | VIYSDGRRTFYGDSVK | GHVAGTFDV [GP_Gibbs] gave 0.66 (6 of 6 replicates). For GFTLNSYGIS | VIYSDGRRTFYSDSVK | GAAAGTFDS [Ctrl+GPLM_Gen], the assay gave 0.53 (12 of 12 replicates). Variant GFTLLSYGIS | VIYSDGRRTAYGDSVK | GRAAGTFDL [Ctrl] gave 1.48 (6 of 6 replicates).

6 of these entries, quoted again:

With GFTLMDYGIS | VIYSDGRRTFYGDSVK | GRAAGTFDS [Ctrl] the result was 1.44 (6 of 6 replicates).
With GFDLNSYGIS | VIYSDGRRTFYQDSVK | GRWAGTFDA [GP_Gibbs] the result was -0.22 (4 of 6 replicates).
With GFTLNSYGIS | VIYSDGRRTQYGDSVK | GKAAGTFPS [Ctrl] the result was nd (0 of 6 replicates).
With GFTLNSYGIS | VIYSDGKRTFYGDDVK | GRNAGTFDT [GP_Gibbs] the result was 0.93 (6 of 6 replicates).
With GFTLNSYGIS | VIYSDGRRTFYSDSVK | GAAAGTFDS [Ctrl+GPLM_Gen] the result was 0.53 (12 of 12 replicates).
With GFELNDYGIS | VIYSDGRRTFYADSVK | GRAAGTFDS [GPLM_Gen] the result was 0.52 (6 of 6 replicates).